Data as given in ChEMBL document CHEMBL1151960, “(Nitrooxyacyloxy)methyl esters of aspirin as novel nitric oxide releasing aspirins” (J Med Chem, 2009).

Legend:
[1] = test system: Aorta; test: Vasodilatory activity in Wistar rat endothelium-denuded thoracic aortic ring assessed as inhibition of phenylephrine-induced contraction […]; details: strain Wistar
[2] = test system: Aorta; test: Vasodilatory activity in Wistar rat endothelium-denuded thoracic aortic ring assessed as inhibition of phenylephrine-induced contraction at 100 uM preincubated for 30 mins before phenylephrine addition in presence of 1 uM 1H-[1,2,4]oxadiazolo[4,3-a]quinoxalin-1-one; set-up: scale not given: the % may be the effect or the level left; details: strain Wistar

| SMILES | EC50 [1] [µM] | Activity [2] [%] |
| --- | --- | --- |
| O=C(O)CCCCC(CO[N+](=O)[O-])O[N+](=O)[O-] (stereo not drawn) | 6.8 | < 50 |
| O=C(O)CCCC(CO[N+](=O)[O-])O[N+](=O)[O-] (stereo not drawn) | 5.8 | – |
